Read-outs that look alike come from different tables or passages of the source.
What was measured:
[1] = Solubility of hesperidin in solutions of different pH; type: physicochemical; settings: alkaline solution (composition #18, 0.05 M sodium carbonate, pH 11)
[2] = cited from earlier work

## hesperidin
[1]
  solubility of hesperidin: easily dissolved
[2]; neutral to acidic solutions
  solubility of hesperidin: barely dissolves
[2]; strong alkali solutions having a pH of 11 or more
  solubility of hesperidin: dissolves

Reference: patent US8507452B2, “Hesperidin-containing composition” (Sunstar Inc., priority 2009, dated 2013)
